Source: patent US6329498A, “Polypeptide transition metal salts and method of enhancing anti-HIV activity of polypeptide” (Seikagaku Corporation, priority 1996, dated 2001)

Tested on: MT-4 cells
Assay: Cytotoxicity on virus-non-infected MT-4 cells, MTT method
Type: cell-based
Conditions: 5 days at 37° C.

Question: Dextran sulfate [reference compound] was tested. Which “CC50 (50% cytotoxic concentration)” value did it give?
Answer: > 1000 µg/mL
